Measurements as given in PubChem BioAssay AID463254 (National Center for Advancing Translational Sciences (NCATS), 2010).
Only a part is listed here, and it is no random draw. Calls of active or inactive are those of the source. Calls come from the whole dose curve; as a rule, active = well fitted inhibition curve with a large enough effect; inconclusive = small, poorly fitted or top-dose-only effect, or effect the other way; inactive = flat fitted curve, though single readings scatter.

By UniProt entry, the sequences of proteins in these tests, tags left out.
UniProt O75604, whole entry: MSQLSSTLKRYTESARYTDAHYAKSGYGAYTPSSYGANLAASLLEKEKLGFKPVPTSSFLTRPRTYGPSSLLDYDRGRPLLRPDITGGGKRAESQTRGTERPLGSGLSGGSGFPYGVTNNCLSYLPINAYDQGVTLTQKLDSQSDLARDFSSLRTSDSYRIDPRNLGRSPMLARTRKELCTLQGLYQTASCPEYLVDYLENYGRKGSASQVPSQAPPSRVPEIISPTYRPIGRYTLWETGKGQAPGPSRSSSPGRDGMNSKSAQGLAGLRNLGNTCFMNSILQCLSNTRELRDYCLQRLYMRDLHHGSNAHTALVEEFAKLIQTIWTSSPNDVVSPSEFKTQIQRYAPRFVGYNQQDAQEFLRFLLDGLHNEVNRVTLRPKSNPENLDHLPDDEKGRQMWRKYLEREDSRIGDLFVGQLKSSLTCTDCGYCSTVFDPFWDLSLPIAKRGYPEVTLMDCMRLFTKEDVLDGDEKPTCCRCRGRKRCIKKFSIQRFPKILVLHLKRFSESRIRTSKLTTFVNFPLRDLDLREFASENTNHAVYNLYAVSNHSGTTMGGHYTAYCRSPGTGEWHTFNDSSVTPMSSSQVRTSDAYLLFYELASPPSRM

Target: Ubiquitin carboxyl-terminal hydrolase 2 (Homo sapiens) (UniProt O75604)
Test: qHTS Assay for Inhibitors of Ubiquitin-specific Protease USP2a Using CHOP2 as the Reporter;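 note: plate controls were DMSO wells for no effect and full inhibition by NEM control for full effect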
Settings: USP2 core, Ub-CHOP2 coupled fluorogenic reporter, 485/531; at 38.3 µM (top of the series)
From the text: NIH Molecular Libraries Screening Centers Network [MLSCN] NIH Chemical Genomics Center [NCGC] MLSCN Grant: XO1-MH079852-01 PI Name: Nicholson, Ben. Progenra Inc, Malvern, PA NCGC Assay Overview: Homeostasis of cellular proteins is maintained through a combination of synthesis and degradation. The pathway that accounts for the majority of protein degradation is the ubiquitin-proteasomal pathway. Ubiquitin (Ub) is highly conserved in all cells and the generation of a multi-Ub chain typically targets proteins for degradation by the proteasome. However, ubiquitination is highly reversible and dynamic. […] Thus, this coupled assay gives a fluorescent read-out at excitation/emission wavelengths of 485/531. […]
NCGC Assay Protocol Summary: The assay buffer, prepared fresh at the day of the assay, contains 20mM Tris-HCl pH 8.0, 2mM CaCl2, 2mM beta-Mercaptoethanol, 0.05% CHAPS. […] Plates were read after 60min RT incubation on a ViewLux (Perkin Elmer) plate reader using the following wavelengths Ex 485nm /Em 531nm. […] Concentration-response curves were fitted to the normalized data and the concentration-response curves were then classified based on curve quality (r2), response magnitude and degree of measured activity. The time zero reading was used to flag fluorescence artifacts. […]

SMILES	activity change, negative = inhibition
CCC(=O)N(c1ccccc1)C1(COC)CCN(CCn2nnn(CC)c2=O)CC1	inactive: 2.21%
CCC(=O)N(c1ccccc1)C1(COC)CCN(CCc2cccs2)CC1	inactive: -2.08%
